By UniProt entry, the sequences of proteins in these tests, tags left out. Where a name states a change or a piece, a line headed by the entry shows the natural chain unless it says otherwise.
UniProt P01889: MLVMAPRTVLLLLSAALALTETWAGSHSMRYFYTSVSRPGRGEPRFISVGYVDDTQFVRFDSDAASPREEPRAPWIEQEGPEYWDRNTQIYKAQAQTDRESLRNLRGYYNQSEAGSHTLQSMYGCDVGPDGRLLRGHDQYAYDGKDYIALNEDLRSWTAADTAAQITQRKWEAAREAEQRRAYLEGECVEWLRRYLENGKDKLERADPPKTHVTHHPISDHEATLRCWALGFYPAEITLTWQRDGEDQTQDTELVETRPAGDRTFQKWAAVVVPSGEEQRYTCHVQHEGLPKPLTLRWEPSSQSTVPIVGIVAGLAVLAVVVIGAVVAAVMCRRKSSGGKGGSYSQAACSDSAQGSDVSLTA

The first assay has as its target HLA-B*4402 (Homo sapiens, UniProt P01889, A223V/A65T/A93T/A95T/D201E/D98Y/E176V/E187L/E204Q/E69K/G107R/H137Y/K202T/L105A/L119I/N104T/N87E/Q56L/Q94N/R106L/R155S/R180D/S101N/S121R/S35A/S48T/T118I/V36M/W191S/Y140D/Y91S). In words: biochemical. It is filed as binding.
Details: not given
In the case of `CC[C@H](C)[C@H](NC(=O)[C@@H](NC(=O)[C@@H](NC(=O)[C@@H](NC(=O)[C@H](Cc1c[nH]c2ccccc12)NC(=O)[C@H](CC(C)C)NC(=O)[C@H](CC(N)=O)NC(=O)[C@H](CCC(=O)O)NC(=O)[C@H](C)N)C(C)C)[C@@H](C)O)C(C)C)C(=O)O`, the IC50 was found to be 0.237 µM. Still for that read-out and setting: the value for `CC(C)C[C@H](NC(=O)[C@H](CC(N)=O)NC(=O)[C@H](CCC(=O)O)NC(=O)[C@H](C)N)C(=O)N[C@@H](Cc1c[nH]c2ccccc12)C(=O)N[C@H](C(=O)N[C@H](C(=O)N[C@H](C(=O)N[C@@H](CCCNC(=N)N)C(=O)O)C(C)C)[C@@H](C)O)C(C)C` was 4.86 µM; that for `CC(C)[C@H](NC(=O)[C@H](CC(N)=O)NC(=O)[C@H](CCC(=O)O)NC(=O)[C@H](C)N)C(=O)N[C@@H](Cc1c[nH]c2ccccc12)C(=O)N[C@H](C(=O)N[C@H](C(=O)N[C@H](C(=O)N[C@@H](Cc1ccc(O)cc1)C(=O)O)C(C)C)[C@@H](C)O)C(C)C` was 1.11 µM; that for `CC(C)C[C@H](NC(=O)[C@@H]1CCCN1C(=O)[C@H](CCC(=O)O)NC(=O)[C@H](C)N)C(=O)N[C@@H](Cc1c[nH]c2ccccc12)C(=O)N[C@H](C(=O)N[C@H](C(=O)N[C@H](C(=O)N[C@@H](Cc1ccc(O)cc1)C(=O)O)C(C)C)[C@@H](C)O)C(C)C` was 1.32 µM. For the compound `CC[C@H](C)[C@H](NC(=O)[C@H](CCC(=O)O)NC(=O)CN)C(=O)N[C@@H](CO)C(=O)N1CCC[C@H]1C(=O)N[C@@H](Cc1ccc(O)cc1)C(=O)N1CCC[C@H]1C(=O)N[C@@H](CO)C(=O)N[C@@H](CC(C)C)C(=O)O`, the IC50 was found to be 3.56 µM.

Still in this assay, the particulars now being: B*4402.
Consider `CC(C)C[C@H](NC(=O)[C@H](CC(C)C)NC(=O)[C@H](CC(C)C)NC(=O)[C@H](Cc1ccccc1)NC(=O)[C@H](Cc1c[nH]cn1)NC(=O)[C@@H](NC(=O)[C@H](CC(C)C)NC(=O)[C@H](CCC(=O)O)NC(=O)[C@H](C)N)C(C)C)C(=O)O`, for which the IC50 came out at 0.033 µM. Still for that read-out and setting: the value for `CSCC[C@H](NC(=O)[C@H](CCC(=O)O)NC(=O)[C@H](C)N)C(=O)N[C@@H](CC(C)C)C(=O)NCC(=O)N[C@@H](CO)C(=O)N[C@H](C(=O)N[C@H](C(=O)NCC(=O)O)C(C)C)C(C)C` was 0.027 µM; that for `C[C@H](NC(=O)[C@H](CC(=O)O)NC(=O)[C@H](CCC(N)=O)NC(=O)[C@@H](NC(=O)[C@H](CCC(=O)O)NC(=O)[C@@H]1CCCN1C(=O)[C@H](CCC(=O)O)NC(=O)[C@@H](N)CS)[C@@H](C)O)C(=O)N[C@H](C(=O)O)[C@@H](C)O` was 23.4 µM.

Take `CC(C)[C@H](NC(=O)[C@@H]1CCCN1C(=O)[C@H](CC(N)=O)NC(=O)[C@H](CCC(N)=O)NC(=O)[C@@H](NC(=O)[C@H](CCC(=O)O)NC(=O)[C@@H](N)CS)[C@@H](C)O)C(=O)N[C@@H](CO)C(=O)N[C@@H](C)C(=O)O`: the IC50 was 20 µM. The compound `CC(C)C[C@H](NC(=O)[C@@H]1CCCN1C(=O)[C@H](CO)NC(=O)[C@H](CCCNC(=N)N)NC(=O)[C@@H]1CCCN1C(=O)[C@H](C)NC(=O)[C@H](CCC(=O)O)NC(=O)[C@@H](N)CCC(=O)O)C(=O)O` registered an IC50 of 1.59 µM. `CSCC[C@H](NC(=O)[C@H](CCCNC(=N)N)NC(=O)[C@@H]1CCCN1C(=O)CNC(=O)[C@H](CCC(=O)O)NC(=O)[C@@H](N)CCC(=O)O)C(=O)N[C@@H](Cc1ccccc1)C(=O)N1CCC[C@H]1C(=O)N[C@@H](CC(=O)O)C(=O)N[C@@H](CC(C)C)C(=O)O` showed an IC50 of 0.095 µM. In turn, `CC[C@H](C)[C@H](NC(=O)[C@H](CCC(=O)O)NC(=O)[C@@H](N)CCC(=O)O)C(=O)N[C@H](C(=O)NCC(=O)N[C@@H](Cc1ccc(O)cc1)C(=O)N[C@@H](CC(C)C)C(=O)N[C@@H](Cc1ccc(O)cc1)C(=O)O)[C@@H](C)O` gave an IC50 of 0.011 µM. As for `CC[C@H](C)[C@H](NC(=O)[C@H](Cc1ccc(O)cc1)NC(=O)[C@H](CC(C)C)NC(=O)[C@H](Cc1ccc(O)cc1)NC(=O)CNC(=O)[C@@H](NC(=O)[C@@H](NC(=O)[C@H](CCC(=O)O)NC(=O)[C@@H](N)CCC(=O)O)[C@@H](C)CC)[C@@H](C)O)C(=O)O`, the IC50 amounted to 0.012 µM. In turn, `CC[C@H](C)[C@H](NC(=O)[C@H](CCCCN)NC(=O)[C@H](CCC(=O)O)NC(=O)[C@@H](N)CCC(=O)O)C(=O)N[C@@H](Cc1c[nH]c2ccccc12)C(=O)N[C@@H](CCC(=O)O)C(=O)N[C@@H](CCC(=O)O)C(=O)N[C@@H](CC(C)C)C(=O)O` displayed an IC50 of 99 µM.

The compound `CC(C)C[C@H](NC(=O)[C@H](Cc1ccc(O)cc1)NC(=O)[C@H](CCC(=O)O)NC(=O)[C@@H](N)CCC(=O)O)C(=O)N[C@H](C(=O)N1CCC[C@H]1C(=O)N[C@@H](CCC(N)=O)C(=O)N[C@@H](CCC(N)=O)C(=O)NCC(=O)O)C(C)C` showed an IC50 of 0.651 µM. Same read-out and setting: the value for `CC(C)[C@H](NC(=O)[C@H](CO)NC(=O)[C@H](CC(=O)O)NC(=O)[C@H](CCC(=O)O)NC(=O)[C@H](CCCNC(=N)N)NC(=O)CNC(=O)[C@H](CCC(=O)O)NC(=O)[C@@H](N)Cc1ccccc1)C(=O)N[C@@H](Cc1ccccc1)C(=O)O` was 0.221 µM; that for `CC(C)C[C@H](NC(=O)[C@H](C)NC(=O)[C@H](CCC(=O)O)NC(=O)CNC(=O)[C@H](CCCNC(=N)N)NC(=O)[C@H](C)NC(=O)[C@H](CCC(=O)O)NC(=O)[C@@H](N)CC(C)C)C(=O)NCC(=O)O` was 11 µM; that for `CC(C)C[C@H](NC(=O)CNC(=O)[C@H](CC(C)C)NC(=O)[C@H](C)NC(=O)[C@H](CCC(=O)O)NC(=O)CNC(=O)[C@H](CCCNC(=N)N)NC(=O)[C@H](C)NC(=O)[C@H](CCC(=O)O)NC(=O)[C@@H](N)CC(C)C)C(=O)N[C@H](C(=O)O)C(C)C` was greater than 17.8 µM. Same read-out and setting: with `CSCC[C@H](NC(=O)[C@H](CC(=O)O)NC(=O)[C@H](CC(=O)O)NC(=O)[C@H](CC(=O)O)NC(=O)[C@H](CCC(=O)O)NC(=O)[C@@H](N)CC(C)C)C(=O)NCC(=O)N[C@@H](CC(=O)O)C(=O)N[C@@H](CC(C)C)C(=O)O` the figure was 0.947 µM; with `C[C@H](NC(=O)[C@H](CCC(=O)O)NC(=O)[C@@H]1CCCN1)C(=O)N[C@@H](CCC(N)=O)C(=O)N[C@@H](CC(N)=O)C(=O)N[C@H](C(=O)N[C@H](C(=O)N[C@@H](Cc1ccc(O)cc1)C(=O)O)[C@@H](C)O)[C@@H](C)O`, 2.2 µM. `CC(C)[C@H](NC(=O)[C@H](CC(=O)O)NC(=O)[C@@H]1CCCN1C(=O)[C@H](CCC(N)=O)NC(=O)[C@H](CC(N)=O)NC(=O)[C@@H](NC(=O)[C@H](Cc1ccc(O)cc1)NC(=O)[C@H](CCC(=O)O)NC(=O)[C@@H]1CCCN1)C(C)C)C(=O)O` displayed an IC50 of 1.11 µM. Consider `CC[C@H](C)[C@H](NC(=O)[C@H](CC(N)=O)NC(=O)[C@@H]1CCCN1C(=O)[C@@H](NC(=O)[C@H](Cc1ccccc1)NC(=O)[C@H](CC(C)C)NC(=O)[C@H](CCC(=O)O)NC(=O)[C@@H](N)CCC(N)=O)[C@@H](C)CC)C(=O)O`, for which the IC50 is 0.752 µM. Regarding `CC[C@H](C)[C@H](NC(=O)[C@H](CC(N)=O)NC(=O)[C@@H]1CCCN1C(=O)[C@@H](NC(=O)[C@H](Cc1ccccc1)NC(=O)[C@H](CC(C)C)NC(=O)[C@H](CCC(=O)O)NC(=O)[C@@H](N)CCC(N)=O)[C@@H](C)CC)C(=O)N[C@H](C(=O)N[C@H](C(=O)O)C(C)C)[C@@H](C)O`, the IC50 came to 0.093 µM. The same measure, in the same setting: the value for `CC(C)C[C@H](NC(=O)[C@H](CCC(=O)O)NC(=O)[C@H](CC(C)C)NC(=O)[C@H](C)NC(=O)[C@H](CCC(=O)O)NC(=O)[C@H](CC(N)=O)NC(=O)[C@H](CC(C)C)NC(=O)[C@H](CCC(=O)O)NC(=O)[C@@H](N)CCCNC(=N)N)C(=O)O` was 0.525 µM; that for `CC(C)C[C@H](NC(=O)[C@H](CO)NC(=O)[C@H](CCCNC(=N)N)NC(=O)[C@H](CC(C)C)NC(=O)[C@H](CCC(N)=O)NC(=O)[C@H](CC(C)C)NC(=O)[C@H](CCC(=O)O)NC(=O)[C@@H](N)CCCNC(=N)N)C(=O)O` was 2.03 µM; that for `CC(C)[C@H](NC(=O)[C@H](CC(=O)O)NC(=O)[C@H](CO)NC(=O)CNC(=O)[C@H](C)NC(=O)CNC(=O)[C@H](CCC(=O)O)NC(=O)[C@@H](N)CO)C(=O)N[C@@H](Cc1ccccc1)C(=O)O` was 0.069 µM. With `CC(C)C[C@H](NC(=O)[C@H](Cc1ccc(O)cc1)NC(=O)[C@H](CCC(=O)O)NC(=O)[C@@H](N)CO)C(=O)N[C@@H](CCC(N)=O)C(=O)N[C@@H](CC(C)C)C(=O)N[C@H](C(=O)N[C@@H](Cc1ccccc1)C(=O)NCC(=O)O)C(C)C`, the IC50 came to 0.271 µM. For the compound `CC(C)C[C@H](NC(=O)[C@H](CCC(=O)O)NC(=O)[C@@H](N)[C@@H](C)O)C(=O)N[C@H](C(=O)N[C@@H](CCC(=O)O)C(=O)N1CCC[C@H]1C(=O)N[C@@H](CC(C)C)C(=O)N[C@H](C(=O)N1CCC[C@H]1C(=O)N[C@@H](CO)C(=O)NCC(=O)O)[C@@H](C)O)C(C)C`, the IC50 was greater than 21.1 µM. `CC(C)C[C@H](NC(=O)[C@H](CC(C)C)NC(=O)[C@H](CC(C)C)NC(=O)[C@H](Cc1ccccc1)NC(=O)[C@H](Cc1c[nH]cn1)NC(=O)[C@@H](NC(=O)[C@H](CC(C)C)NC(=O)[C@H](CCC(=O)O)NC(=O)[C@@H](N)C(C)C)C(C)C)C(=O)O`: the IC50 stood at 0.579 µM. On the same count and under the same terms, the value for `CC(C)C[C@H](NC(=O)[C@H](C)NC(=O)[C@H](CC(C)C)NC(=O)CNC(=O)[C@H](CO)NC(=O)CNC(=O)[C@H](CC(C)C)NC(=O)[C@H](CCC(=O)O)NC(=O)[C@@H](N)CCCNC(=N)N)C(=O)O` [RELGSGLAL] was 0.457 µM.

The same assay, now with this note: read-out: B*4402.
Consider REGPLPAARIPA, for which the IC50 amounted to 32.9 µM.

A further assay addresses HLA-B*4001 (Homo sapiens, UniProt P01889, A65T/A93T/A95T/D138N/D98Y/E176V/E69K/N87E/Q56L/Q94N/R180L/S121R/S35A/S48T/T167S/V36M/W171L/Y33H/Y91S). In words: biochemical. The assay is classed as binding.
Details: not given
In the case of `CC(C)C[C@H](NC(=O)[C@H](CC(N)=O)NC(=O)[C@H](CCC(=O)O)NC(=O)[C@H](C)N)C(=O)N[C@@H](Cc1c[nH]c2ccccc12)C(=O)N[C@H](C(=O)N[C@H](C(=O)N[C@H](C(=O)N[C@@H](CS)C(=O)O)C(C)C)[C@@H](C)O)C(C)C`, the IC50 is 0.157 µM.

The assay is the same for the next values; noted with them: B*4001.
Take `CC(C)C[C@H](NC(=O)[C@H](CC(C)C)NC(=O)[C@@H](NC(=O)[C@H](CCC(=O)O)NC(=O)[C@H](CCCCN)NC(=O)CNC(=O)[C@H](CCC(=O)O)NC(=O)[C@H](C)N)C(C)C)C(=O)N[C@@H](CC(C)C)C(=O)N[C@H](C(=O)O)C(C)C`: the IC50 was determined as 1.02 µM.

The record behind these values is patent publication US20060079453A1, “Hla binding peptides and their uses” (priority 2002, published 2006).
